Data reported in ChEMBL document CHEMBL5584250, “5-HT6 receptor neutral antagonists protect astrocytes: A lesson from 2-phenylpyrrole derivatives” (Eur J Med Chem, 2024).

Chains of the proteins cited; added tags and fusions are not shown.
UniProt P50406, whole entry: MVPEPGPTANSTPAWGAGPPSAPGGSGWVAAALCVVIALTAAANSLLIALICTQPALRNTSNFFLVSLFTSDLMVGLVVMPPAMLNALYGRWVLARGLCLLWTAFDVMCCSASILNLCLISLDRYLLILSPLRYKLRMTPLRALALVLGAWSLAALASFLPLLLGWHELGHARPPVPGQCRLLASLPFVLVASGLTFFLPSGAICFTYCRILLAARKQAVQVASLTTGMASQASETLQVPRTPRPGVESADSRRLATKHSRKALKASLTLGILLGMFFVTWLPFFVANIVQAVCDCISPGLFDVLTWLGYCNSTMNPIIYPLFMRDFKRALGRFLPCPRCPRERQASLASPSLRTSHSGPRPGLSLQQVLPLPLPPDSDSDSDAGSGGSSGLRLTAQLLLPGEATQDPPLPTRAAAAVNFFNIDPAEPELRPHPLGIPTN

Target: 5-hydroxytryptamine receptor 6 (Homo sapiens, UniProt P50406)

Ki: 0.0126 µM
Compound: O=C(NC1CCNCC1)c1ccn(S(=O)(=O)c2cccc(Cl)c2)c1-c1cccc(F)c1
